# Binding of CDR-mutated scFvs to a peptide of the spike HR2 region

Source: Engelhart et al. 2022 (doi:10.1038/s41597-022-01779-4), MIT Lincoln Laboratory and A-Alpha Bio; data file from the FLAb repository.

Target peptide (SARS-CoV-2 spike, HR2 region): PDVDLGDISGINAS

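Phage display of a naive human antibody library on the peptide gave the parent. Variants in AAYL50 differ from the parent at up to three CDR positions; double and triple changes were sampled at random. The scFvs were displayed on barcoded MATa yeast, the peptide on MATalpha yeast. The frequency of each diploid, read from paired DNA barcodes, reflects how well the two displayed proteins bind. Each replicate has its own calibration line, from reference interactions of the BCL2 family. The assay was run in three technical replicates.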

Each scFv is VH, three GGGGS repeats, VL, as in the parent Ab-14, and differs from it in the CDRs of the light chain only.
VH: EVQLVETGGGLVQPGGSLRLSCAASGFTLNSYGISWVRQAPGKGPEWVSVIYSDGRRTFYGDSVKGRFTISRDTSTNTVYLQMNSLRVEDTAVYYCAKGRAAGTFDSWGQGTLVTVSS
VL: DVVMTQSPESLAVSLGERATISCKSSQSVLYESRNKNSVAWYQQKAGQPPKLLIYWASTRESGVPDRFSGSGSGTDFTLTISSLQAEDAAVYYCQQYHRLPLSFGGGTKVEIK

Each variant is given by its three light chain CDRs, as the data file delimits them; those of the parent are KSSQSVLYESRNKNSVA, WASTRES, QQYHRLPLS.
Scale: log10 of Kd in nM, estimated from mating counts; low values are strong binders.
A mean of the replicates is given; it leaves out those without a signal.
An entry "no signal" has no value in the source: the pair was not observed among the diploids in any replicate. This suggests poor binding but is not conclusive.
Background: pairings of library AAYL50 with three empty control strains gave a value in 18% of cases (median 4.19, 5th percentile 2.99). Values in that range, when seen in few replicates, are hard to tell from nonspecific mating. Also given: how often the same scFv was detected with the empty control strains.
Parent in this assay: reference entry 0.65, copy in this library 1.68.

| # | mean, log10 nM | replicates with signal | empty controls | CDR-L1 | CDR-L2 | CDR-L3 |
|---|---|---|---|---|---|---|
| 1 | 2.77 | 3/3 | 1/9 | KSSQSVIYVSRNKNSVA | WASTRES | QQYMRLPLS |
| 2 | 4.74 | 2/3 | 4/9 | KSSQSVLKEWRNKNSVA | WRSTRES | QQYHRLPLS |
| 3 | 2.13 | 3/3 | 3/9 | KSSQSVQYESRNKNSVA | WISTRES | QQYHRYPLS |
| 4 | no signal | 0/3 | 0/9 | FSSQSVLYESRNKNSVA | WVSTRES | QQYHRLPLS |
| 5 | 1.10 | 3/3 | 1/9 | KSSESVLYESQNKNSVA | WASTRIS | QQYHRLPLS |
| 6 | 3.63 | 3/3 | 0/9 | LSSQSVLYRSRNRNSVA | WASTRES | QQYHRLPLS |
| 7 | no signal | 0/3 | 0/9 | KSSQFVLYESRNKNSVA | WHVTRES | QQYHRLPLS |
| 8 | 2.93 | 3/3 | 2/9 | KSSQSVLYESRQKKSVA | WAGTRES | QQYHRLPLS |
| 9 | 4.27 | 1/3 | 5/9 | KSSQSVLYESRNKFSVA | WASTRDS | QQYNRLPLS |
| 10 | 4.20 | 1/3 | 2/9 | KSSQSVLYSSRNKNSVA | WASGRES | QQYHRLPDS |
| 11 | no signal | 0/3 | 0/9 | DSSQSVLYESRNKNSVA | WASTRES | HYYHRLPLS |
| 12 | 3.13 | 1/3 | 2/9 | KSSQSVLYECRNKNPVA | WASTRES | QQYHRPPLS |
| 13 | no signal | 0/3 | 0/9 | KSHQSVLYESRNKNSYA | WASTRES | QQYHRLPHS |
| 14 | 4.21 | 1/3 | 2/9 | KSSQSVLYESTNKNGVA | WISTRES | QQYHRLPLS |
| 15 | 0.97 | 3/3 | 3/9 | KSHQGVLYESRNKNSVA | WASTRES | QQYHRCPLS |
| 16 | 3.07 | 1/3 | 0/9 | KSSQSVLYESRNKNTVA | WASTRQS | FQYHRLPLS |
| 17 | 1.23 | 3/3 | 0/9 | KSSQRVLYESRNKNSVA | WASTREI | QQYHRLPLS |
| 18 | 1.76 | 3/3 | 3/9 | KSCQSVLYESRNRNSVA | WASTRES | QQYHHLPLS |
| 19 | 2.94 | 3/3 | 2/9 | KWSQSVLYMSRNKNSVA | WASTRES | QQAHRLPLS |
| 20 | 2.22 | 3/3 | 2/9 | KSGQSVYYESRNKNSVA | WAGTRES | QQYHRLPLS |
| 21 | 4.01 | 1/3 | 3/9 | KSSQSVLYESRNKNSVA | WARDPES | QQYHRLPLS |
| 22 | 3.63 | 2/3 | 3/9 | KSSQSVLYESRWKNSVA | WAFTRYS | QQYHRLPLS |
| 23 | 1.51 | 3/3 | 0/9 | ISSQSVLYESRNKNSVA | WASTRES | QQYHRLPIS |
| 24 | 3.80 | 2/3 | 4/9 | KSSQMVLYESRNKNSVA | WAMTRES | QQYHRLTLS |
| 25 | 1.73 | 3/3 | 1/9 | KSSQSVIYESRNKNQVA | WASTRES | QQYHRLLLS |
| 26 | 1.86 | 3/3 | 0/9 | KQSQSVLYESREKNSVA | WASYRES | QQYHRLPLS |
| 27 | 5.23 | 2/3 | 3/9 | KSWQSVLYNSRNKNFVA | WASTRES | QQYHRLPLS |
| 28 | 2.64 | 3/3 | 4/9 | KSSQSVLYESRNKNSVA | WAFTREA | QQYHVLPLS |
| 29 | no signal | 0/3 | 0/9 | KGSQSVLYESRNKNSVA | WASTREV | YQYHRLPLS |
| 30 | 3.24 | 1/3 | 0/9 | KSSQDVLYESRHKNSKA | WASTRES | QQYHRLPLS |
| 31 | 1.42 | 3/3 | 2/9 | KSSQSVLYESRNRNSVA | WASTRES | QQYVRLPLA |
| 32 | 0.76 | 3/3 | 4/9 | KSSQAALYESRNKNSVA | WASTRIS | QQYHRLPLS |
| 33 | 0.97 | 3/3 | 0/9 | KSSQSVLVESRNKNSVA | WASTRES | QQYHRDPLM |
| 34 | no signal | 0/3 | 2/9 | KSSQSYLYASRNKNSVA | WYSTRES | QQYHRLPLS |
| 35 | no signal | 0/3 | 1/9 | KSSQSVLYHSRNTNSVA | WASTFES | QQYHRLPLS |
| 36 | 4.19 | 1/3 | 4/9 | KSSQSVRYPSRCKNSVA | WASTRES | QQYHRLPLS |
| 37 | 1.10 | 3/3 | 0/9 | KSSQSVLYEPKNKNSVA | WAKTRES | QQYHRLPLS |
| 38 | 3.85 | 2/3 | 2/9 | KSSQTVLYESRNKNSVA | WASTRES | QQYFRLPLS |
| 39 | 4.09 | 1/3 | 0/9 | KSSQSVLCESRNKNSFA | WASTRES | QQWHRLPLS |
| 40 | 1.36 | 3/3 | 0/9 | KSSQSVLYEQRFKNSVA | WASTRES | QQYHRLPLS |
| 41 | -0.10 | 3/3 | 5/9 | KSSQSVLYESRNKNDVA | AGSTRES | QQYHRLPLS |
| 42 | no signal | 0/3 | 0/9 | NSIQSGLYESRNKNSVA | WASTRES | QQYHRLPLS |
| 43 | no signal | 0/3 | 1/9 | KSLQSVLYESRNKNSVY | WASTREA | QQYHRLPLS |
| 44 | 2.75 | 1/3 | 4/9 | KSSQSVLYESRNKNSIA | WAQTRES | QSYHRLPLS |
| 45 | 3.34 | 3/3 | 3/9 | KSRQSVQYESRNFNSVA | WASTRES | QQYHRLPLS |
| 46 | 2.46 | 3/3 | 1/9 | KSSQSVLYESRNKNSVA | WASYRES | QQYHRPPVS |
| 47 | 2.66 | 3/3 | 3/9 | MSSQSVLYESRNKNSVA | WASTRES | QNYHRLGLS |
| 48 | no signal | 0/3 | 0/9 | KSSQSVLYESRNKNSVT | WASCRES | FQYHRLPLS |
| 49 | 6.22 | 1/3 | 4/9 | KSSLSVLYESRNKNSVA | WASNRES | HQYHRLPLS |

Excerpt, the first 3 entries:

| CDR-L1 | CDR-L2 | CDR-L3 | mean, log10 nM | replicates with signal | empty controls |
|---|---|---|---|---|---|
| KSSQSVIYVSRNKNSVA | WASTRES | QQYMRLPLS | 2.77 | 3/3 | 1/9 |
| KSSQSVLKEWRNKNSVA | WRSTRES | QQYHRLPLS | 4.74 | 2/3 | 4/9 |
| KSSQSVQYESRNKNSVA | WISTRES | QQYHRYPLS | 2.13 | 3/3 | 3/9 |